Target: VLA4 (Homo sapiens, UniProt P05556+P13612)
Assay: Inhibition of VLA4-dependent adhesion to BSA-CS1 (labelled Ramos cells)
Conditions: binding of BCECF-AM labelled Ramos cells to CS1 peptide-coated wells, 2 mM MnCl2, 30 minutes at room temperature; IC50 range
Description: For example, the cell adhesion inhibitory activity of these compounds may be measured by determining the concentration of inhibitor required to block the binding of VLA-4-expressing cells to fibronectin- or CS1-coated plates. In this assay microtiter wells are coated with either fibronectin (containing the CS-1 sequence) or CS-1. If CS-1 is used, it must be conjugated to a carrier protein, such as bovine serum albumin, in order to bind to the wells. Once the wells are coated, varying concentrations of the test compound are then added together with appropriately labelled, VLA-4-expressing cells. Alternatively, the test compound may be added first and allowed to incubate with the coated wells prior to the addition of the cells. The cells are allowed to incubate in the wells for at least 30 minutes. Following incubation, the wells are emptied and washed. Inhibition of binding is measured by quantitating the fluorescence or radioactivity bound to the plate for each of the various concentrations of test compound, as well as for controls containing no test compound.
VLA-4-expressing cells that may be utilized in this assay include Ramos cells, Jurkat cells, A375 melanoma cells, as well as human peripheral blood lymophocytes (PBLs). […]
We dissolved BSA-SMCC (Pierce Chemical, Rockford, Ill.; Catalog # 77115) in H2O at a concentration of 10 mg/mL. […] Samples were analyzed for cross-linking by SDS-PAGE. […]

Chains of the proteins cited; added tags and fusions are not shown. Residues count along the entry.
UniProt P05556, 21-798 limits assumed: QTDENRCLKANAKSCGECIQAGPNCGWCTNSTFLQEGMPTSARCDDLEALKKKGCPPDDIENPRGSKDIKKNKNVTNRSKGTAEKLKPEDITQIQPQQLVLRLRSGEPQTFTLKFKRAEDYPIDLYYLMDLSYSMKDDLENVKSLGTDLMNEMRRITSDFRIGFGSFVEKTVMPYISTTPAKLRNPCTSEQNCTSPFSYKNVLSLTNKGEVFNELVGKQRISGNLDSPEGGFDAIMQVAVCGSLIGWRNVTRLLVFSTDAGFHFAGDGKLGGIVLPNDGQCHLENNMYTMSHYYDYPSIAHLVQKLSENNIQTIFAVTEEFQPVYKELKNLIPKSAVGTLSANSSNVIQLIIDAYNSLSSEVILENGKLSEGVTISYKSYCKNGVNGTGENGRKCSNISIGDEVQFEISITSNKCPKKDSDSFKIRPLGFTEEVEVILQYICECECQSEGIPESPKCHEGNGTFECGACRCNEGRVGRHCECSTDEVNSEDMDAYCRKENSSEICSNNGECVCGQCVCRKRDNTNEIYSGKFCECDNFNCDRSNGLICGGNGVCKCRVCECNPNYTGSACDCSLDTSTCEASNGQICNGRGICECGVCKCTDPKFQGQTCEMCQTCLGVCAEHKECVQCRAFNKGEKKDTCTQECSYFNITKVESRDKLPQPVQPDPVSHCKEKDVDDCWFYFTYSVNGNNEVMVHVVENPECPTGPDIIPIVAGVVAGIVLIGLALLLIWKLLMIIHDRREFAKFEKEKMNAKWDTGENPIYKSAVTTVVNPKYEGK
UniProt P13612, 34-1032 limits assumed: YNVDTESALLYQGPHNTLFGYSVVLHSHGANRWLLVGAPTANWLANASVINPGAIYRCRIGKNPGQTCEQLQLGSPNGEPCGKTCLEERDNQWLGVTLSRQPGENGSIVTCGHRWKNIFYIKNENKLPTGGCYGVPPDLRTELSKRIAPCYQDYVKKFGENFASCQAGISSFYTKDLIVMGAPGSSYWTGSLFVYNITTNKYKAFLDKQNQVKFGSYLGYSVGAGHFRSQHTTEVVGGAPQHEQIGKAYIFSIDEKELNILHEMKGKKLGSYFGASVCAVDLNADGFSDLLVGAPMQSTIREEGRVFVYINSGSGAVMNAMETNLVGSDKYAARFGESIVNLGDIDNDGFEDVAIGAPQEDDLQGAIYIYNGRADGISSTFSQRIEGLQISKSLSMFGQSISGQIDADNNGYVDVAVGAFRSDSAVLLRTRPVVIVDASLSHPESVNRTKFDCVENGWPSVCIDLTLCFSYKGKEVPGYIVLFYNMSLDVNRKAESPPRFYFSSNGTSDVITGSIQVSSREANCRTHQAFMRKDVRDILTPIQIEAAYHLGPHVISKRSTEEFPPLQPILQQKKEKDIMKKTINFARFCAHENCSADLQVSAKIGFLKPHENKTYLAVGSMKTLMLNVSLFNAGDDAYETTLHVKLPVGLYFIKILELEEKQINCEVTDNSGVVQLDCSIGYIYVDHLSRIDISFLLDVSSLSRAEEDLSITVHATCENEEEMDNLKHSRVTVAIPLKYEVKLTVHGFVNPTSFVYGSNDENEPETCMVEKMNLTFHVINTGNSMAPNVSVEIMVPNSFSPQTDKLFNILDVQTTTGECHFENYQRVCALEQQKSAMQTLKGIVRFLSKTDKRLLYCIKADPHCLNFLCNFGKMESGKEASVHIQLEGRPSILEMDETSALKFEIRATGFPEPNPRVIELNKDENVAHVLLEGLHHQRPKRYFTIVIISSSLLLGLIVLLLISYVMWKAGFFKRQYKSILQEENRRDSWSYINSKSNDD

- IC50: > 10 µM
Structure (SMILES): CC(C)CC(NC(=O)C(c1ccccc1)c1ccccc1)C(=O)NC(CC(=O)O)c1ccccc1 (stereo not shown)
